Assay results taken from ChEMBL document CHEMBL5154740, “Novel Aurora A and Protein Kinase C (α, β1, β2, and θ) Multitarget Inhibitors: Impact of Selenium Atoms on the Potency and Selectivity” (J Med Chem, 2022).

Chains of the proteins cited; added tags and fusions are not shown.
UniProt P05771, whole entry: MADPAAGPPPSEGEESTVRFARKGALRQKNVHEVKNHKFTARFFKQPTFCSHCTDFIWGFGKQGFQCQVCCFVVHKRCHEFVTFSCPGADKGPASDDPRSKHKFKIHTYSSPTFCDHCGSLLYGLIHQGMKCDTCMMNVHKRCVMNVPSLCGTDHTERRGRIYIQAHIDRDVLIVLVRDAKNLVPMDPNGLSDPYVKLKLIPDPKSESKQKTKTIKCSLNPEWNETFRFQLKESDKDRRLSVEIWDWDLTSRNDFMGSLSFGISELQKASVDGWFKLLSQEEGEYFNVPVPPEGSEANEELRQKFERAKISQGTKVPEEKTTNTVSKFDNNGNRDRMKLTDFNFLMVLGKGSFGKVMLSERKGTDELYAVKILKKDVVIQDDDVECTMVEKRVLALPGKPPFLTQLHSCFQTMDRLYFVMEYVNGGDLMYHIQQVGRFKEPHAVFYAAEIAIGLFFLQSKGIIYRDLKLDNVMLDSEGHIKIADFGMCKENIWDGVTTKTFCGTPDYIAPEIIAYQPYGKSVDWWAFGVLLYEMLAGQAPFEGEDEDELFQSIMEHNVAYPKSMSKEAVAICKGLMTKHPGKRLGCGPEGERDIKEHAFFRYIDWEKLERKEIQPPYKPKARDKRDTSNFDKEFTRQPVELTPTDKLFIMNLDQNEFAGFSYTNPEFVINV

Biological target: Protein kinase C beta type (Homo sapiens, UniProt P05771)
Assay: Inhibition of PKCbeta1 (unknown origin) by IMAP kinase assay

- IC50: 0.64 nM
Structure (SMILES): CN1CCN(c2nc(C3=C(c4c[nH]c5ccccc45)C(=O)NC3=O)c3ccccc3n2)CC1 [SOTRASTAURIN]
